Measurements as given in PubChem BioAssay AID504847 (National Center for Advancing Translational Sciences (NCATS), 2011).
Where “and” joins values, the source holds several entries; their conditions need not be identical. Equal entries are not always repeated. Only a part is listed here, and it is no random draw. Some results for these compounds are left out of this collection, so the calls shown say nothing about other tests. Results filed as inconclusive are left out. Calls of active or inactive are those of the source. Calls come from the whole dose curve; as a rule, active = well fitted inhibition curve with a large enough effect; inconclusive = small, poorly fitted or top-dose-only effect, or another doubt; inactive = no such curve, though single readings can be large or run the other way.

The chains behind the UniProt entries cited, without tags or fusion partners.
UniProt P11473, whole entry: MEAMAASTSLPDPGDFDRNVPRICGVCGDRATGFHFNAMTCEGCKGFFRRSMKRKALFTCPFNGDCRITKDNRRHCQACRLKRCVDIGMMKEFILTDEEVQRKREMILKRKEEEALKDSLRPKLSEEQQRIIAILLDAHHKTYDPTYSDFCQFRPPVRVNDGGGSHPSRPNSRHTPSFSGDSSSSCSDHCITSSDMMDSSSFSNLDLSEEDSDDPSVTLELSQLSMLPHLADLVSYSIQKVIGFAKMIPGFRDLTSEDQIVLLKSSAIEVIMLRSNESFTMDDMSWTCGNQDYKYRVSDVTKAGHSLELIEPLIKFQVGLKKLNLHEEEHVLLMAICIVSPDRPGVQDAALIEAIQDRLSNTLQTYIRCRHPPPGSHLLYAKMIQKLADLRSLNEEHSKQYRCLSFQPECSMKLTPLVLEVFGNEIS

The molecules below were run against Vitamin D3 receptor (Homo sapiens) (UniProt P11473) (assay: Inhibitors of the vitamin D receptor (VDR): qHTS). Details: VDR-SRC2-3 peptide fluorescence polarization, 2 h; hits give low values.
% is set by controls: 0 for no effect and ±100 for the full control effect.

SMILES | max response, negative = inhibition
CC(C)COc1ccc(C(=O)NCC2(N(C)C)CCCCC2)cc1 | inactive: 8.43%
COc1cccc(C(=O)NCC2(N3CCOCC3)CCCCC2)c1 | inactive: 8.99%
O=C(OC1CN2CCC1CC2)C(CO)(c1ccccc1)c1ccccc1 (centres undefined) | inactive: 2.99%
O=C(OCCN1CCCC1)C(O)(c1ccccc1)c1ccccc1 | inactive: 2.28%
CC(C)Oc1ccc(C(=O)NCC2(N(C)C)CCCCC2)cc1 | inactive: 4.33% and inactive: -10.4%
CN(C)c1cccc(C(=O)NCC2(N(C)C)CCCCC2)c1 | inactive: -0.422%
COc1ccc(Br)c(C(=O)NCC2(N3CCCCC3)CCCCC2)c1 | inactive: 1.88%
Cc1cccc(C(=O)NCC2(N(C)C)CCCCC2)c1 | inactive: 12.7%
COc1cc(C(=O)NCC2(N(C)C)CCCCC2)c([N+](=O)[O-])cc1OC | inactive: -11.4%
CN(C)C1(CNC(=O)c2ccc(Br)cc2)CCCCC1 | inactive: -1.91%
O=C(NCC1(N2CCCCC2)CCCCC1)c1cccc(Cl)c1 | inactive: 5.94%
COc1ccc(Cl)cc1C(=O)NCC1(N(C)C)CCCCC1 | inactive: -28.1%
COc1cccc(C(=O)NCC2(N3CCCCC3)CCCCC2)c1 | inactive: -2.42%
COc1ccc(C(=O)NCC2(N(C)C)CCCCC2)cc1Cl | inactive: 7.7%
CCCCOc1ccccc1C(=O)NCC1(N(C)C)CCCCC1 | inactive: 3.29%
CN1CCCC(OC(=O)C(O)(c2ccccc2)c2ccccc2)C1 (centres undefined) | inactive: 7.61%
CN(C)c1ccc(C(=O)NCC2(N(C)C)CCCCC2)cc1 | inactive: 0.531%

SMILES | max response, negative = inhibition
CN(C)C1CCCC1OC(=O)C(O)(c1ccccc1)c1ccccc1 (centres undefined) | inactive: -24%
Cc1ccccc1C(=O)NCC1(N2CCCCC2)CCCCC1 | inactive: -14.4%
CN(C)C1(CNC(=O)c2ccccc2[N+](=O)[O-])CCCCC1 | inactive: 4.74%
CCOc1cccc(C(=O)NCC2(N(C)C)CCCCC2)c1 | inactive: 4.49%
COc1ccc(C(=O)NCC2(N(C)C)CCCCC2)cc1 | inactive: -3.7%
O=C(NCC1(N2CCCCC2)CCCCC1)c1cccc(Br)c1 | inactive: -4%
CCN1CCCC(OC(=O)C2(O)c3ccccc3C=Cc3ccccc32)C1 (centres undefined) | inactive: -3.38%
Cc1cc(C(=O)NCC2(N3CCCCC3)CCCCC2)ccc1[N+](=O)[O-] | inactive: -13.9%
O=C(NCC1(N2CCCCC2)CCCCC1)c1cc(F)c(F)cc1Cl | inactive: -3.3%
C=CCN1CCN(CCOC(=O)C(O)(c2ccccc2)c2ccccc2)CC1 | inactive: 5.06%
O=C(NCC1(N2CCCCC2)CCCCC1)c1cc([N+](=O)[O-])ccc1Cl | inactive: 0.606%
Cc1ccc(C(=O)NCC2(N3CCCCC3)CCCCC2)cc1 | inactive: -6.97%
CN(C)C1(CNC(=O)c2ccccc2F)CCCCC1 | inactive: 14.2%
COc1cc(SC)ccc1C(=O)NCC1(N(C)C)CCCCC1 | inactive: 13.8%
CCN(CC)CC(C)C(C)OC(=O)C(O)(c1ccccc1)c1ccccc1 (centres undefined) | inactive: 8.48%
CN(C)C1(CNC(=O)c2cccc(Cl)c2)CCCCC1 | inactive: 10.2%
CC(C)N1C(=O)CC2(CCN(CCOC(=O)C(O)(c3ccccc3)c3ccccc3)CC2)C1=O | inactive: 2.22%
